Legend:
D(2) dopamine receptor = D(2) dopamine receptor (Homo sapiens, UniProt P14416); assay: Displacement of [125I]IABN from human dopamine D2 receptor expressed in HEK293 cells; assay type: cell-based
Homo sapiens [1] = organism: Homo sapiens; assay: Selectivity for human dopamine D3 receptor over human 5HT2A receptor
Homo sapiens [2] = organism: Homo sapiens; assay: Selectivity for human dopamine D3 receptor over human 5HT2C receptor
Homo sapiens [3] = organism: Homo sapiens; assay: Selectivity for human dopamine D3 receptor over human 5HT1A receptor

Chains of the proteins cited; added tags and fusions are not shown.
UniProt P14416, whole entry: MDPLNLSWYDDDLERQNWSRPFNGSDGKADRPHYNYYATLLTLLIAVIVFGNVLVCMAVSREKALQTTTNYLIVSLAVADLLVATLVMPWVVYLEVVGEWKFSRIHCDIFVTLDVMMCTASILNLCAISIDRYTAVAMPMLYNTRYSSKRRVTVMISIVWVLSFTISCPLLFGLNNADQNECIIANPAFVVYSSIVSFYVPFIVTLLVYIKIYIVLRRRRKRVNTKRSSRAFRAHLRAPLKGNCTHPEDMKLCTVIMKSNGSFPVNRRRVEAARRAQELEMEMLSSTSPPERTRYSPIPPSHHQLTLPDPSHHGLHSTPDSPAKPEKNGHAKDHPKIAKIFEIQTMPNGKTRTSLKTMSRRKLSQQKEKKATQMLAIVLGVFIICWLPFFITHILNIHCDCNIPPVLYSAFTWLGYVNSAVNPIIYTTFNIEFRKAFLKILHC

| Ki (D(2) dopamine receptor) [µM] | Ratio Ki (Homo sapiens [1]) | Ratio Ki (Homo sapiens [2]) | Ratio Ki (Homo sapiens [3]) | Structure (SMILES) |
| --- | --- | --- | --- | --- |
| 1.05 |  |  |  | O=C(NC[C@H]1C[C@H]1CN1CCN(c2cccc(Cl)c2Cl)CC1)c1ccc(-c2ccccn2)cc1 (relative stereo) |
| 0.0283 | 570 | 1840 | 17 | COc1ccccc1N1CCN(CCCCNC(=O)c2ccc(-c3ccccn3)cc2)CC1 |
| 0.0554 | 520 | 1090 | 113 | COc1ccccc1N1CCN(CCCCNC(=O)c2ccc3c(c2)Cc2ccccc2-3)CC1 |

Source: ChEMBL document CHEMBL1148745, “Heterocyclic analogues of N-(4-(4-(2,3-dichlorophenyl)piperazin-1-yl)butyl)arylcarboxamides with functionalized linking chains as novel dopamine D3 receptor ligands: potential substance abuse therapeutic agents” (J Med Chem, 2007)
